The source of these data is PubChem BioAssay AID592 (National Center for Advancing Translational Sciences (NCATS), 2007).

The other results are listed elsewhere or left out. The source made the active and inactive calls. The rule behind the calls is not given here.

A short description of the experiment: qHTS Assay for Spectroscopic Profiling in A647 Spectral Region. The note with it: Compound fluorescence, A647 channel (570/671 nm), Tris buffer; active compounds read high. An excerpt:
NIH Molecular Libraries Screening Centers Network [MLSCN] NIH Chemical Genomics Center [NCGC] […] Occasionally, the artifactual effect may originate from the compounds own spectral or other biophysical properties which generally tend to track its assay concentration. Pre-screening/profiling the library with respect to the compounds spectral properties should help one exclude false positives early on. While the most informative fluorescent profiling data set is obtained by performing a full excitation and emission scan of each well by using a monochromator-based plate reader, such an approach is practical only on a very limited scale as scanning each well requires long time. An alternative approach, applied here, is to perform plate reader scans using selected excitation and emission wavelength pairs to generate a multidimensional relational database that correlates compound concentration and the respective relative fluorescence intensity at a given wavelength set. A standard curve of Alexa 647 (A647) present on each plate as six-point concentration series, was used to compute a normalized fluorescence response, termed dye-equivalent concentration, for each compound at each concentration.
NCGC Assay Protocol Summary: Buffer: 100 mM Tris buffer, pH 8.0 Dye standard plate: The wells in columns 1 through 4 of a Kalypsys polypropylene 1536-well compound plate were filled with standard solutions of fluorophore corresponding to the spectral region of interest. Solutions of A647 were placed in the following wells: AC1, AD1: 3 mM, AC2, AD2: 300 uM, AC3, AD3: 30 uM, AC4, AD4: zero (DMSO), AE1, AF1: 3 uM, AE2, AF2: 900 nM, AE3, AF3: 300 nM, AE4, AF4: zero (DMSO). Assay Steps: Six uL of buffer were dispensed to 1536-well Greiner black plates. Compounds and dye standards (23 nL) were transferred via Kalypsys PinTool. The plates were incubated for 15 min at room temperature, and then read on ViewLux (Perkin-Elmer) High-throughput CCD imager using 570 nm and 671 nm excitation and emission filter set. Keywords: NIH Roadmap, MLSCN, MLI, MLSMR, qHTS, NCGC, A647, A-647, Fluorescent Profiling.
For the compound `NC1CCCCC1.NP(=O)(O)N(CCCl)CCCl`, the max dye-equivalent concentration is inactive: 9.5 nM.

Consider `N#CC1(Nc2ccccc2)CCN(CCc2ccccc2)CC1`, for which the max dye-equivalent concentration is inactive: 9.9 nM.

For `O=C(OC1CN2CCC1CC2)C1c2ccccc2Oc2ccccc21` (configuration not stated), the max dye-equivalent concentration was inactive: 31 nM.

As to `CCC(CO)(C(=O)OC1CN2CCC1CC2)c1ccccc1` (configuration not stated), the max dye-equivalent concentration was inactive: 50 nM.

Regarding `CCOc1ncccc1C(=O)NCC1(N2CCOCC2)CCCCC1`, the max dye-equivalent concentration is inactive: 10 nM.

Regarding `O=C(O)C1(Nc2ccccc2)CCN(Cc2ccccc2)CC1`, the max dye-equivalent concentration is inactive: 21 nM.

Regarding `N/C(=N\O)c1c(N)no[n+]1[O-]`, the max dye-equivalent concentration is inactive: 21 nM.
